Assay results from PubChem BioAssay AID463187 (University of Pittsburgh Molecular Library Screening Center, 2010).
Several values for one entry are separate records, joined by “and”; a condition that tells them apart may be missing. Equal values may be shown once. Only a part is listed here, and it is no random draw. Activity calls are given as the source filed them.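 Rule for the calls: active = Hck-Nef kinase inhibition above about 50% (limit read from the data); inactive = inhibition below that limit.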

Sequences of proteins named here, by UniProt entry; tags and fusion partners are left off. A change or cut given only in a name is not applied to a line headed by its entry.
UniProt P08631: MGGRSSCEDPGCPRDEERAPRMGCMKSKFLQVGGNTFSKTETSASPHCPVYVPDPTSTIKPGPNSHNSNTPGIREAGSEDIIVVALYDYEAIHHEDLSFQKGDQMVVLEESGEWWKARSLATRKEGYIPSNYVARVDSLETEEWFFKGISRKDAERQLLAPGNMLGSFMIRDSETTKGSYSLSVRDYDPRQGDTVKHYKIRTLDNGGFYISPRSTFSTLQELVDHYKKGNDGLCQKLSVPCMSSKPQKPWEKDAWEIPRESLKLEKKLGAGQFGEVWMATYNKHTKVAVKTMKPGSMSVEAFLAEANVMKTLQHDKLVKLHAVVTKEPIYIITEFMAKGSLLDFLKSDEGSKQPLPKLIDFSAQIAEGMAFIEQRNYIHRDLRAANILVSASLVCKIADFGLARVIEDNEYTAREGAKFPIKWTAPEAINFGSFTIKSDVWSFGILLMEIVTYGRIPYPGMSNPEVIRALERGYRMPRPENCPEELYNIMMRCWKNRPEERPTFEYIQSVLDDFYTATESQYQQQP

target: Tyrosine-protein kinase HCK (Homo sapiens) (UniProt P08631); test: inhibitors of Nef-activated human Hck kinase, primary screen, biochemical, Z-Lyte FRET, 384-well, Hck-YEEI (AID 463187); conditions: Recombinant Hck-YEEI plus Nef, Z-Lyte FRET kinase assay; at 20 µM; hits give high values;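 note: 0% = DMSO with Hck plus Nef and 100% = Hck alone without Nef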

Q: Which inhibition does the source give for `Cc1ccc(NP(=O)(Oc2ccccc2)Oc2ccccc2)nc1` here?
A: inactive: -17.7%

Q: With `O=[N+]([O-])c1cc([N+](=O)[O-])c(CCNc2ccccc2)c([N+](=O)[O-])c1` as the compound, how does the inhibition read?
A: inactive: -0.0803%

Q: With `CCc1nc2c(n1)c1c(non1O)c1c2no[n+]1[O-]` as the compound, how does the inhibition read?
A: inactive: 0.615%

Q: Which inhibition does the source give for `CC(=O)N1C2C3N(C(C)=O)C1C1N(C(C)=O)C(C(N1C(C)=O)N3C(C)=O)N2C(C)=O` here?
A: inactive: 0.314%

Q: `O=[N+]([O-])c1cccc2n[nH]nc12` was tested. Which inhibition did it give?
A: inactive: -20.8%

Q: For `COc1ccc(C2=NCC(CBr)S2)cc1` (stereo not given), which inhibition is on record?
A: inactive: -5.66%

Q: Which inhibition does the source give for `Oc1ccccc1CNc1ccccn1` here?
A: inactive: 3.5%

Q: With `Cc1c2non([O-])c-2c(C)[n+](=O)[n+]1[O-]` as the compound, how does the inhibition read?
A: inactive: -3.36%

Q: For `O=C(NC(Sc1ccncn1)C(Cl)(Cl)Cl)c1ccccc1` (stereo not given), which inhibition is on record?
A: inactive: 13.4%

Q: Which inhibition does the source give for `CC(C)CC(=O)NC(Sc1ccc(Cl)cc1)C(Cl)(Cl)Cl` (stereo not given) here?
A: inactive: 0.835%

Q: How did the inhibition turn out when `Nc1cc(N)c2nonc2c1[N+](=O)[O-]` was run?
A: inactive: 16.8%

Q: For `Clc1ccc(Cl)c(NC2=NCC(CBr)S2)c1` (stereo not given), which inhibition is on record?
A: inactive: -0.2%

Q: For `CN1CCCC(OC(=O)C(c2ccccc2)c2ccccc2)C1` (stereo not given), which inhibition is on record?
A: inactive: 12.6%

Q: How did the inhibition turn out when `COc1ccccc1OP(=O)(Nc1ccc(C)cn1)Oc1ccccc1OC` was run?
A: inactive: 15.1%

Q: With `Cc1ccc(OP(=O)(Nc2nccs2)Oc2ccc(C)cc2)cc1` as the compound, how does the inhibition read?
A: inactive: 15.4%

Q: Which inhibition does the source give for `Cc1ccc(N/C(=N/P(=O)(N2CCOCC2)N2CCOCC2)N2CCOCC2)cc1` here?
A: inactive: 23.6%

Q: `NC(=O)c1cc([N+](=O)[O-])cc([N+](=O)[O-])c1N` was tested. Which inhibition did it give?
A: inactive: 13.8%

Q: For `Nc1cccc2ccc([As](=O)(O)O)cc12`, which inhibition is on record?
A: inactive: 11.4%

Q: `CCN(N=Nc1nonc1N)c1nonc1N` was tested. Which inhibition did it give?
A: inactive: 0.647%

Q: Which inhibition does the source give for `CCOP(=O)(Nc1ccccc1)OCC` here?
A: inactive: -6.68% and inactive: 13.3%

Q: For `Cc1cc(SC(NC(=O)c2ccc(F)cc2)C(Cl)(Cl)Cl)ncn1` (stereo not given), which inhibition is on record?
A: inactive: 1.44%

Q: With `Cc1ccc(NP(=O)(Oc2ccccc2F)Oc2ccccc2F)nc1` as the compound, how does the inhibition read?
A: inactive: -0.839%

Q: How did the inhibition turn out when `O=P(Nc1nc2ccc(Cl)cc2s1)(c1ccccc1)c1ccccc1` was run?
A: inactive: 3.6%

Q: `O=C(O)c1ccccc1[As](=O)(O)O` was tested. Which inhibition did it give?
A: inactive: -9.01%

Q: With `CC(=O)Nc1ccc([As](=O)(O)O)cc1` as the compound, how does the inhibition read?
A: inactive: 6.8%
